Test results reported in US20240067662A1, “KRAS INHIBITORS” (Bristol-Myers Squibb Company, priority 2022, published 2024).

Protein sequences, listed by entry. Tags and fused reporters are not part of them. Residues count along the entry.
UniProt P01116, 1-188 isoform 2 G12C: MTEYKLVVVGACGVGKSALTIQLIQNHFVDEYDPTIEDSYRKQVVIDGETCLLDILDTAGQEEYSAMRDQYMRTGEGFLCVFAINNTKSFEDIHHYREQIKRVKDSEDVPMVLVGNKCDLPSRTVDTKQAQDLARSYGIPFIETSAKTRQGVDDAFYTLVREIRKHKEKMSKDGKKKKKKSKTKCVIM

Biological target: GMPPNP-loaded KRAS G12C (Homo sapiens, UniProt P01116, G12C)
Experiment: KRAS G12C RAF Disruption Assay (HTRF)
Settings: read-out: KRASG12C RAF Disruption Assay (IC50); recombinant GMPPNP-loaded KRAS G12C (5 nM), 20 min with compound; GST-RAF1 RBD (9 nM); HTRF signal
Procedure: KRAS^G12C RAF Disruption Assay
This is a functional assay that measures activity of compounds against KRAS-G12C^(ON), i.e., the active form of KRAS G12C. Recombinant GMPPNP-loaded KRAS G12C (5 nM) was treated with compound at room temperature for 20 minutes in assay buffer (50 mM Tris pH 7.5, 100 mM NaCl, 1 mM MgCl2, 1 mM DTT, 100ug/ml BSA). Recombinant GST-RAF1 RBD (9 nM) was added, and the reaction mixture was incubated for 20 minutes. SA-Tb (0.25 nM) was added, and the reaction mixture was incubated for 3 hours. HTRF signal was measured (PerkinElmer Envision), the signal ratio (λem 520/λem 495) was calculated, and IC50 values were calculated from the dose-response curve.

Structure (SMILES) | IC50
C#Cc1c(F)ccc2cccc(-c3ncc4c(N5CCN(C(=O)/C(F)=C/c6nccs6)C[C@@H]5C)nc(OC[C@@]56CCCN5C[C@H](F)C6)nc4c3F)c12 | 0.3 µM
C#Cc1cccc2cccc(-c3ncc4c(N5CCC6(CC5)CN(C(=O)/C(F)=C/c5ccccn5)C6)nc(OC[C@@]56CCCN5C[C@H](F)C6)nc4c3F)c12 | 3.3 µM
